Results from PubChem BioAssay (Tox21).
The list shows a part of the results, in another mix than the full data. Some tests of the compounds listed are not included; inactive here does not mean inactive elsewhere. Results filed as inconclusive are left out. The source made the active and inactive calls. Unless noted, calls come from the whole dose curve; as a rule, active = well fitted curve in the direction sought with a large enough effect in the repeat runs; inconclusive = weak or mixed curves; inactive = no such curve, though single readings can be large; an effect the other way counts as inactive or inconclusive.

What was measured:
[1] = qHTS assay for small molecules that induce genotoxicity in human embryonic kidney cells expressing luciferase-tagged ATAD5 (AID 651632); conditions: HEK293T ATAD5-luciferase induction, 16 h; at 83.3 µM (top of the series); note: nearly all actives have a fitted effect of over 15% in size
Summary of the method: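 HEK293T cells carrying luciferase-tagged ATAD5 were given compound or DMSO vehicle and incubated 16 hr at 37C, 5% CO2. Luciferase activity was read after 30 min at room temperature with Amplite; a rise signals genotoxic stress.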

[2] = qHTS assay for small molecule agonists of the p53 signaling pathway - cell viability (AID 651633; calls by dose curve;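 note: p53RE-bla HCT reporter cells with a stable beta-lactamase p53 reporter; nearly all actives have a fitted effect of over 30% in size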); conditions: p53RE-bla HCT-116 viability, ATP luminescence, 16 h; at 83.3 µM (top of the series)
Summary of the method: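 p53RE-bla cells, seeded at 4,000 per well and rested 5 h at 37 C/5% CO2, received compounds in DMSO for 16 h at 37 C. CellTiter-Glo was then added, and luminescence was read after 30 min at room temperature to gauge cytotoxicity.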

[3] = qHTS assay for small molecules that induce genotoxicity in human embryonic kidney cells expressing luciferase-tagged ATAD5 - cell viability (AID 651634; calls by dose curve; note: nearly all actives have a fitted effect of over 25% in size); conditions: HEK293T ATAD5-luc cells viability, CellTiter-Fluor, 15.5 h; at 83.3 µM (top of the series)
Summary of the method: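 HEK293T cells carrying luciferase-tagged ATAD5, 2,000 cells/well, exposed to compound for 15.5 hr at 37C. Viability read as live-cell protease activity by CellTiter-Fluor fluorescence after 30 min at 37C.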

[4] = qHTS assay for small molecule disruptors of the mitochondrial membrane potential - cell viability (AID 720634; calls by dose curve;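 note: human HepG2 liver cancer cells; nearly all actives have a fitted effect of over 20% in size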); conditions: HepG2 viability, ATP luminescence (CellTiter-Glo), 1 h; at 83.2 µM (top of the series)
Summary of the method: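 HepG2 cells, 2,000 per well, attached overnight, then treated 1 hr at 37 C, 5% CO2. Viability read as ATP by CellTiter-Glo luminescence after 30 min at room temperature. Read in the same wells as the m-MPI membrane-potential dye assay.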

[5] = qHTS assay to test for compound auto fluorescence at 590 nm (red) in HepG2 cells (AID 720674); conditions: HepG2 autofluorescence, red 540/590 nm, 1 h; at 46 µM (top of the series)
Summary of the method: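 Intrinsic compound fluorescence in the red window (Ex/Em 540/590 nm) is measured in attached HepG2 cells exposed for 1 hr, DMSO vehicle as baseline, benchmarked to Rose Bengal sodium.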

[6] = qHTS assay to test for compound auto fluorescence at 535 nm (green) in HepG2 cells (AID 720675); conditions: green autofluorescence 485/535 nm, 1 h; at 46 µM (top of the series)
[7] = qHTS assay to test for compound auto fluorescence at 460 nm (blue) in HEK293 cells (AID 720678); conditions: blue autofluorescence 405/460 nm; at 46 µM (top of the series)
Summary of the method: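 Auto fluorescence in the blue band was quantified as triamterene equivalency. HEK293 cells were seeded at 2,000/well, dosed after a 4-5 hr attachment, and kept overnight at 37C before the 405/460 nm reading.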

[8] = qHTS assay to test for compound auto fluorescence at 590 nm (red) in HEK293 cells (AID 720679); conditions: red autofluorescence 540/590 nm; at 46 µM (top of the series)
Summary of the method: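 Autofluorescence equivalency to Rose Bengal sodium, 540/590nm, in HEK293 cells exposed overnight to 23 nL compound per well.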

[9] = qHTS assay to test for compound auto fluorescence at 535 nm (green) in HEK293 cells (AID 720680); conditions: green autofluorescence 485/535 nm; at 46 µM (top of the series)
[10] = qHTS assay to test for compound auto fluorescence at 460 nm (blue) in HEK293 cell free culture (AID 720681); conditions: cell-free medium, autofluorescence 405/460 nm (blue); at 46 µM (top of the series)
Summary of the method: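 Test compounds were pinned into cell-free culture medium (DMEM with 10% FBS) and fluorescence was read directly at Ex/Em 405/460 nm. Signals were expressed as fluorescence equivalents of triamterene, with DMSO vehicle as control.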

[11] = qHTS assay to test for compound auto fluorescence at 535 nm (green) in HEK293 cell free culture (AID 720682); conditions: cell-free medium, green autofluorescence 485/535 nm, stronger effect = higher value; at 46 µM (top of the series)
Summary of the method: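 Fluorescein serves as the green reference fluorophore; each compound's intrinsic emission at 535 nm (excitation 485 nm) is reported as an equivalent amount of that dye, measured in serum-containing DMEM without cells.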

[12] = qHTS assay to test for compound auto fluorescence at 590 nm (red) in HEK293 cell free culture (AID 720683); conditions: cell-free medium autofluorescence, Ex540/Em590 red; at 46 µM (top of the series)
Summary of the method: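 Tox21 10K library compounds were pinned into cell-free DMEM with 10% FBS and fluorescence was read at excitation 540 nm. Activity is expressed as Rose Bengal sodium equivalency.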

[13] = qHTS assay to test for compound auto fluorescence at 590 nm (red) in HepG2 cell free culture (AID 720684); conditions: cell-free medium autofluorescence, red 540/590 nm; at 46 µM (top of the series)
Summary of the method: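 Red fluorescence (540 nm excitation, 590 nm emission) was measured after compound transfer into cell-free MEM supplemented with 10% FBS. Values are equivalencies against Rose Bengal sodium.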

[14] = qHTS assay to test for compound auto fluorescence at 460 nm (blue) in HepG2 cell free culture (AID 720685); conditions: Cell-free culture medium, blue autofluorescence 405/460 nm; at 46 µM (top of the series)
Summary of the method: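 Compound (23 nL) or DMSO pinned into cell-free MEM with 10% FBS; blue fluorescence read at 405/460 nm excitation/emission, expressed as auto-fluorescence equivalency to triamterene.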

[15] = qHTS assay to test for compound auto fluorescence at 535 nm (green) in HepG2 cell free culture (AID 720686); conditions: Cell-free medium, green autofluorescence 485/535 nm; at 46 µM (top of the series)
[16] = qHTS assay to test for compound auto fluorescence at 460 nm (blue) in HepG2 cells (AID 720687); conditions: autofluorescence 405/460 nm, 1 h; at 46 µM (top of the series)
Summary of the method: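 Cells (2,000/well in MEM with 10% FBS) attached overnight at 37 C, then were exposed to compound or DMSO for 1 hr at 37 C, 5% CO2. Fluorescence read at Ex/Em 405/460 nm, expressed as triamterene-equivalent signal.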

[17] = qHTS assay to identify small molecule antagonists of the glucocorticoid receptor (GR) signaling pathway - cell viability counter screen (AID 720693); conditions: GR-bla HeLa viability, CellTiter-Glo luminescence, 18 h, with 5 nM dexamethasone present; at 58.5 µM (top of the series); note: nearly all actives have a fitted effect of over 55% in size
Excerpt: National Center for Advancing Translational Sciences [NCATS]
NIH Chemical Genomics Center [NCGC]
U.S. Environmental Protection Agency [EPA]
National Institutes of Environmental Health Sciences [NIEHS]
National Toxicology Program [NTP]
U.S. Food and Drug Administration [FDA]
The Glucocorticoid receptor (GR) is one of the members of the nuclear receptor family of ligand-dependent transcription factors. GR plays a critical role in carbohydrate, protein and lipid metabolisms and programmed cell death. CellSensor GR-bla HeLa cell line (Invitrogen) contains a beta-lactamase reporter gene under the control of the glucocorticoid response element stably integrated into HeLa cells, a cervical cancer cell line that expresses glucocorticoid receptor. The activation of the reporter gene under culture conditions can be detected by fluorescence intensity. […]
The GR-bla HeLa cells were dispensed at 1500 cells/5 ul/well in 1536-well black wall/clear bottom plates using a Multidrop Combi (ThermoFisher Scientific, Waltham, MA) dispenser. […] After 1 uL of LiveBLAzerTM B/G FRET substrate was added using a Flying Reagent Dispenser (Aurora Discovery, San Diego, CA), the plates were incubated at room temperature (RT) for 2 hours, and fluorescence intensity was measured by an Envision plate reader (PerkinElmer, Shelton, CT). […] The luminescence was measured using a ViewLux (Perkin Elmer) plate reader.
% is set by controls: 0 for no effect and ±100 for the full control effect.

CN1CCCC(OC(=O)C(O)(c2ccccc2)c2ccccc2)C1 (configuration not stated)
inactive: activation [1] 1.39% | activity change, negative = cytotoxicity [2] 9.6% | activity, negative = cytotoxicity [3] 16% | activity change, negative = cytotoxicity [4] 4.12% | fluorescence, relative to Rose Bengal [5] 0.15% | fluorescence, % of fluorescein control [6] -0.105% | fluorescence, % of triamterene [7] 0.0382% | fluorescence, % of fluorescent control [8] -0.144% | fluorescence, % of fluorescein [9] 0.156% | fluorescence, % of fluorescent control [10] 0.0478% | activity change [11] -0.0804% | fluorescence, % of fluorescent control [12] -0.46% | fluorescence, % of Rose Bengal [13] -0.0681% | fluorescence, % of fluorescent control [14] -0.162% | fluorescence, % of fluorescein control [15] 0.0661% | fluorescence, % of fluorescent control [16] 0.0231% | viability change, negative = cytotoxic [17] 6.6%
